Experimental findings from paper PMC3097170 (The Journal of pharmacology and experimental therapeutics, 2011) are described below.

Amino acid sequences for entries named in this document (tags omitted).
UniProt P32300, whole entry: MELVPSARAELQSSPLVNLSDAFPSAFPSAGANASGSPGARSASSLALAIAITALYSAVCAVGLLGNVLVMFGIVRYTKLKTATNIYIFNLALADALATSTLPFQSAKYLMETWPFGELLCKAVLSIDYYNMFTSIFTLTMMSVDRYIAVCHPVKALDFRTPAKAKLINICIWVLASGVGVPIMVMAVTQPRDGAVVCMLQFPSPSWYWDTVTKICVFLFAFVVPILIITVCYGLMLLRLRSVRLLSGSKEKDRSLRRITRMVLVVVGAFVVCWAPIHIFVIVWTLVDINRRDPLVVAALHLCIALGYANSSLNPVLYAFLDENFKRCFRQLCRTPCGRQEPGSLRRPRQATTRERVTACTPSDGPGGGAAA
UniProt P42866, whole entry: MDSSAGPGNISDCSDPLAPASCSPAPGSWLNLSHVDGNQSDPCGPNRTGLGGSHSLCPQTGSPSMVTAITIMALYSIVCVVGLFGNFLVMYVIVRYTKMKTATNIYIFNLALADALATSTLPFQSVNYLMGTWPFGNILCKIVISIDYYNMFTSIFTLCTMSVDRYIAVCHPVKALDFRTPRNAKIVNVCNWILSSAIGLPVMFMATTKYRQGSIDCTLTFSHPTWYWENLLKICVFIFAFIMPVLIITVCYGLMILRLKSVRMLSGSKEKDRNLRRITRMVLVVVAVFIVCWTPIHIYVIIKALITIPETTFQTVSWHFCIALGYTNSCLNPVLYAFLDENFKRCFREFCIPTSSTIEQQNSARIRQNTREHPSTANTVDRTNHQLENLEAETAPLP

The target of one experiment is DOR/MOR heteromers (Mus musculus, UniProt P32300+P42866). The format is cell-based, murine.
For the next experiment, the target named is MOR homomers (Mus musculus, UniProt P42866). The format is cell-based, murine. As to conditions: pre-treatment with MOR-specific antagonist, dose-dependent.

CTAP: the “inhibition of methadone-induced endocytosis of DOR/MOR heteromers” value on DOR/MOR heteromers was “blocked endocytosis”. The “inhibition of methadone-induced endocytosis of MOR homomers” value on MOR homomers is on record as “blocked endocytosis”.
